# scFv variants of Ab-14 (light chain) against a SARS-CoV-2 spike peptide

The measurements come from Engelhart et al. 2022 (doi:10.1038/s41597-022-01779-4) through the FLAb antibody collection.

Target: peptide PDVDLGDISGINAS, taken from heptad repeat 2 (HR2) of SARS-CoV-2 spike.

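Phage display of a naive human antibody library on the peptide gave the parent. Library AAYL50 holds single substitutions and randomly drawn double and triple substitutions in the CDRs. Affinity was read by AlphaSeq, a pooled yeast mating assay with surface-displayed partners. After mating in shaken culture at 30 °C for 16 h, diploids were selected and their barcode pairs sequenced. Read counts were normalised to the haploid input and turned into Kd by a linear fit to BCL2-family pairs of known affinity, for each replicate. Each pool was mated in three replicate cultures.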

Parent scFv Ab-14: VH joined to VL by a (GGGGS)3 linker. Changes lie in the light chain CDRs alone.
VH: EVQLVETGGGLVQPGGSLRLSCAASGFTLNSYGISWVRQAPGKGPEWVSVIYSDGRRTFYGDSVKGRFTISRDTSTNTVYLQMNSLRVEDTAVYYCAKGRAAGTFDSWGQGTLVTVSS
VL: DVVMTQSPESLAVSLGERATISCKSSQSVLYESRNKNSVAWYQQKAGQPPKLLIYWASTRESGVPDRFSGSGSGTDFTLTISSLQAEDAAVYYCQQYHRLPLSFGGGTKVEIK

Variants are written as CDR1, CDR2 and CDR3 of the light chain (limits as in the source). Parent: KSSQSVLYESRNKNSVA, WASTRES, QQYHRLPLS. The read-out is the apparent dissociation constant on a log10 scale (nM): the lower, the stronger. Replicates are averaged; those with no signal do not enter the mean. An entry "n.d." has no value in the source: the pair was not observed among the diploids in that replicate. This suggests poor binding but is not conclusive.

CDR-L1	CDR-L2	CDR-L3	replicates, log10 nM	mean log10 Kd (nM)	control signals
KSSQSVLYENNNKNSVP	WASTRES	QQYHRLPLS	n.d. n.d. 5.13	5.13	1/9 (3.66)
KSSQSVLYESRNKNSVA	WASTRES	QQYHRPPLA	n.d. n.d. n.d.	n.d.	1/9 (3.01)
KSSQSVLYESRNKVSVA	WQSTRES	QQYHRLPES	n.d. n.d. 4.68	4.68	1/9 (2.81)
RSSQSVLYESRNKNSVA	WASTRES	IQYHRLPLS	n.d. n.d. n.d.	n.d.	0/9
KSSQSVLYESRNKNSVA	WASTRES	QQYHGLLPS	0.87 0.88 0.88	0.87	1/9 (4.14)
KSSQSVLYEARNKNSVA	YASTRES	QQYHRLPLS	1.91 1.86 2.62	2.13	0/9
KSSQSVLYESKNKNSVA	WAYTRES	QQYPRLPLS	n.d. n.d. n.d.	n.d.	0/9
KSSQSVLYESRNKNSVA	WASTRES	QQDIRLPLS	n.d. n.d. n.d.	n.d.	0/9
KSSQSVRDESRNKNSVA	WAFTRES	QQYHRLPLS	3.11 3.46 2.28	2.95	1/9 (2.55)
KSSQSVLYESRNKNSVA	WASTRES	DFYMRLPLS	n.d. n.d. n.d.	n.d.	0/9
KSSQSVLYERRNKPSVA	WASTRES	QQYHRLSLS	n.d. n.d. n.d.	n.d.	2/9 (4.48)
KSSQKVLTESRNKNSVA	WASTRES	QQYHQLPLS	1.04 1.28 1.10	1.14	1/9 (5.31)
RSSQSVLYESRNKNMVA	WASTRES	QQYHRLPLM	3.28 3.31 4.84	3.81	3/9 (4.76)
KSSFSVLYESPNKNSVA	WASARES	QQYHRLPLS	0.88 1.08 0.70	0.89	0/9
KSSQSVLYESRNKNSVA	WASTRES	QCVHRLPLS	n.d. n.d. 4.33	4.33	4/9 (4.11)
KSSQTVLYESRNKNSVA	WANMRES	QQYHRLPLS	0.76 0.85 0.90	0.84	0/9
KYSQSVLYESRNKNSVA	WASTRES	QQCHREPLS	1.19 1.32 1.18	1.23	1/9 (3.54)
KSSQSVLYESRNKNEVA	WASTMES	QQYHRLPMS	n.d. n.d. n.d.	n.d.	0/9
KSSQKVLYESRGKMSVA	WASTRES	QQYHRLPLS	1.89 1.57 1.97	1.81	1/9 (4.29)
KDSQSVLKESRNKNSVA	WASTRES	QQYHRLSLS	n.d. n.d. n.d.	n.d.	0/9
CSSQSVLYESRNWNSCA	WASTRES	QQYHRLPLS	n.d. n.d. n.d.	n.d.	3/9 (3.12)
KSSQSVLYESRNKNSCA	WASTRES	QQYQRLPES	n.d. 5.15 n.d.	5.15	1/9 (4.31)
KSSASVLYESRNKNSVA	WASTRES	QQEHRLPLS	1.06 1.17 1.08	1.10	3/9 (4.67)
KASQSVLYESRNANSVA	WASTRES	QCYHRLPLS	1.60 1.73 1.90	1.75	3/9 (3.88)
KSSQSVLYEFMNKNSVA	EASTRES	QQYHRLPLS	n.d. n.d. n.d.	n.d.	0/9
KSSQSVLYESKNKNSVA	WASTRES	QQYDRLPLS	0.80 1.02 0.84	0.89	0/9
KSSQSVLYESRNKNSVA	WASTRES	QFYHRLNCS	n.d. 3.45 5.43	4.44	4/9 (4.31)
KSSQSVLYESRNKNSVA	WASTRES	RQYYRHPLS	n.d. n.d. n.d.	n.d.	4/9 (4.61)
KFSQSVLYECRNKNSVA	WASTRES	QQQHRLPLS	6.12 3.82 4.16	4.70	5/9 (3.76)
KSSQSVLYESRNFNSVA	WASTRES	QYYHRCPLS	2.08 2.19 2.50	2.26	0/9
KSSQSDYMESRNKNSVA	WASTRES	QQYHRLPLS	0.27 0.62 0.48	0.46	1/9 (4.69)
KHSQSVLYESRNKNSVA	WASTRES	QQYHRLCLS	2.19 2.07 2.62	2.30	2/9 (4.65)
KSSQSVLYESRAKNFVA	WASKRES	QQYHRLPLS	n.d. n.d. n.d.	n.d.	1/9 (5.02)

Again, the first 2 entries without any signal:

CDR-L1,CDR-L2,CDR-L3,"replicates, log10 nM",mean log10 Kd (nM),control signals
KSSQSVLYESRNKNSVA,WASTRES,QQYHRPPLA,n.d. n.d. n.d.,n.d.,1/9 (3.01)
RSSQSVLYESRNKNSVA,WASTRES,IQYHRLPLS,n.d. n.d. n.d.,n.d.,0/9

Nonspecific signal, from three strains lacking the peptide, appeared in 18% of pairings of library AAYL50, centred on 4.19 (5% of these signals below 2.99); values are not corrected for it. For each scFv, signals with the empty controls are counted beside the result, with their mean in brackets. For reference, the parent read 0.65 as the reference entry and 1.68 as a member of this library.